Measured values reported in patent publication US20200129491A1, “METHODS OF TREATING BRAIN TUMORS USING COMBINATION THERAPY” (AGIOS PHARMACEUTICALS, INC., priority 2017, published 2020).

System: orthotopic human neurosphere-derived grade III glioma cells carrying an IDH1 R132H mutation (TS603 cell line)
Experiment: Ivosidenib and radiation therapy in orthotopic IDH1m glioma mouse model, survival end point (Example 2)
Assay type: in vivo, mice

## N#Cc1ccnc(N2C(=O)CC[C@H]2C(=O)N(c2cncc(F)c2)[C@H](C(=O)NC2CC(F)(F)C2)c2ccccc2Cl)c1 [Ivosidenib, (S)—N—((S)-1-(2-Chlorophenyl)-2-(3,3-difluorocyclobutylamino)-2-oxoethyl)-1-(4-cyanopyridin-2-yl)-N-(5-fluoropyridin-3-yl)-5-oxopyrrolidine-2-carboxamide]
Example 2, survival
  Antagonism of the combination of Ivosidenib and radiation therapy in vivo: no antagonism
Group 4: Ivosidenib + Focal Radiation (simultaneous treatment), versus median control lifespan (21 days)
  % ILS (% increase in lifespan): 114%
Combination therapy (Groups 4 and 5)
  Increase in lifespan compared to the group receiving Focal Radiation (Group 2): comparable increases in lifespan
Combination therapy involving Ivosidenib and Focal Radiation (Groups 4 and 5)
  Increase in lifespan versus control: substantial increases in lifespan
